Our source for the response (relative activity) values is publication PMC11294477.

B1: GluGlu-tagged wild-type Gi1 [not stated] / GST-tagged GINIP protein [not stated] (parent)
chain 1: MGCTLSAEDKAAVERSKMIDRNLREDGEKAAREVKLLLLGAGESGKSTIVKQMKIIHEAGYSEEECKQYKAVVYSNTIQSIIAIIRAMGRLKIDFGDSARADDARQLFVLAGAAEEGFMTAELAGVIKRLWKDSGVQACFNRSREYQLNDSAAYYLNDLDRIAQPNYIPTQQDVLRTRVKTTGIVETHFTFKDLHFKMFDVGGQRSERKKWIHCFEGVTAIIFCVALSDYDLVLAEDEEMNRMHESMKLFDSICNNKWFTDTSIILFLNKKDLFEEKIKKSPLTICYPEYAGSNTYEEAAAYIQCQFEDLNKRKDTKEIYTHFTCATDTKNVQFVFDAVTDVIIKNNLKDCGLF
chain 2: MGVLMSKRQTVEQVQKVSLAVSAFKDGLRDRPSIRRTGELPGSRRGTVEGSVQEVQEEKEAEAGTSVVQEESSAGRAAWERLRDGRGVEPEEFDRTSRFTPPAFIRPTRKLDDDKPPEICLEPREPVVNDEMCDVCEVWTAESLFPCRVCTRVFHDGCLRRMGYIQGDSAAEVTEMAHTETGWSCHYCDNINLLLTEEEMYSLTETFQRCKVIPDCSLTLEDFLRYRHQAAKRGDRDRALSEEQEEQAARQFAALDPEHRGHIEWPDFLSHESLLLLQQLRPQNSLLRLLTVKERERARAAFLARGSGSTVSEAECRRAQHSWFCKRFPEAPSCSVSISHVGPIADSSPASSSSKSQDKTLLPTEQESRFVDWPTFLQENVLYILAARPNSAAIHLKPPG

The first assay covers variants of B1. In words: GINIP pulldown assay (GST-pulldown, IB: GluGlu). The following applies: with GST-tagged GINIP protein; 12 dynes/cm2 laminar 2min; read off a plot.
As to chain 1 Q306K, the response (relative activity) amounted to 1.9.

The assay is the same for the next values; noted with them: with GST-tagged GINIP protein; static (no flow); read off a plot.
Take chain 1 Q306K: the response (relative activity) worked out at 0.7.
